Experimental data from paper PMC10767396, “Structure‐Based Discovery of A Small Molecule Inhibitor of Histone Deacetylase 6 (HDAC6) that Significantly Reduces Alzheimer's Disease Neuropathology” (Advanced Science, 2023).

Tests used:
HDAC6 enzyme = conditions: HDAC6 vs HDAC1
Method: Compounds were tested in a single well for each dilution, and the final concentration of DMSO in all assays was kept at 1%.

BV2 cells = test: Microglial Aβ phagocytosis, MSD Aβ peptide panel 1 (4G8); format: cell-based, murine; conditions: Aβ42 2 µg/mL + PB118 500 and 1000 nM, 6 h
Method: This study utilized microglial BV2 cells and tested the newly developed PB118 to see whether it could reduce microglia‐related neuroinflammation using lipopolysaccharide (LPS), a well‐characterized inflammatory inducer. Briefly, for microglia‐related amyloid (Aβ) phagocytosis study, BV2 cells were seeded in a 6‐well confocal dish (400k cells mL^−1) and cultured overnight for ≈90% confluency. Then, cells were treated with DMSO (vehicle) and Aβ (2 µg mL^−1) alone or in combination with 500 and 1000 nM of PB118 in serum‐free complete media for 6 h. Then, media were collected to perform the LDH assay for cell cytotoxicity assessment. Cells were washed carefully with PBS (2x) and lysed by adding 200 µL of MPER++ (10 mL MPER with 1% protease cocktail inhibitor and 1% EDTA) in each well. Cell lysates were collected in 1.5 mL Eppendorf tube and centrifuged at 12 000 rpm at 4 °C for 15 min and supernatants were collected for further studies. Total protein was quantified using the BCA protein assay kit (Pierce). […]
(§1) MSD immunoassays are quite robust and based on combining multiarray technology and electrochemiluminescence to identify numerous proteins in a single sample. […] Also, the change in different inflammatory cytokines levels was measured by multiplex MSD‐cytokines assay after inducing the cells with lipopolysaccharides (LPS) and treating with different concentrations of PB118. […]

[1] = tested on: 3D human neural stem cell model of AD (ReNcell VM); test: MSD phospho (Thr231)/total tau and Aβ (6E10) assay in 3D-AD culture; format: cell-based; conditions: PB118 1 or 5 µM, 3 weeks
Method: Human precursor ReN cells were used to prepare 3D AD environment following previous work.^[ [30] ^] Briefly, for 3D layers of cells, BD Matrigel stock solution (BD Biosciences) was diluted with ReN cell differentiation medium (in 1:15 dilution) (chilled) followed by vertexing with the cell pellets for 20 s. A final cell concentration of ≈2 × 10^6 cells mL^−1 was used and this cell/ Matrigel mixtures were immediately transferred ([…] in each) into an Optilux clear bottom 96‐well plates (BD Biosciences). A thin layer ([…]) of 3D gels was formed at the bottom of the plates after incubating the plates at 37 °C for 1 h and the media were changed. For differentiation before drug treatment, 3D‐plated cells were cultured for 6 weeks, and the media were changed every 3–4 days. […] Supernatants were collected and further analyzed by MSD immunoassay kit and western blot analysis.
as §1

For `O=C(NO)c1ccc(CN2CCCCc3ccccc32)c(F)c1` [PB118], the “selectivity towards HDAC6 compared to HDAC1” value (HDAC6 enzyme) was > 1000 times, the “Aβ42/Aβ40 ratio in cell lysates” value (BV2 cells) was “did not find significant changes” and the “ratio of Aβ42/Aβ40” value [1] was “did not change”. For the same compound, the “ratio of p-tau/total tau” value [1] was “not changed”.
